Values of other authors in patent US20190060340A1, “NOVEL AMINOGLYCOSIDES AND USES THEREOF IN THE TREATMENT OF GENETIC DISORDERS” (Technion Research & Development Foundation Limited, priority 2007, published 2019).

Details: available toxicity data on aminoglycosides; unit inferred; cited from earlier work

neomycin
LD50: 24 mg/kg
